Six compounds from PubChem BioAssay AID504648 (National Center for Advancing Translational Sciences (NCATS), 2011) can be followed below.

The list shows a part of the results, in another mix than the full data. Results filed as inconclusive are left out. The source made the active and inactive calls. Calls follow the shape of the dose curve; as a rule, active = well fitted inhibition curve with a large enough effect; inconclusive = small, poorly fitted or top-dose-only effect, or effect the other way, or another doubt; inactive = no such curve, though single readings can be large or run the other way.
% is scaled to controls: 0 for no effect and ±100 for the full control effect.

The test in a line: Nrf2 qHTS screen for inhibitors: counterscreen for cytotoxicity. The settings on record: A549 ARE-Fluc cells, CellTiter-Fluor viability, 18-24 h; at 46 µM (top of the series). An excerpt:
NIH Molecular Libraries Probe Production Network [MLPCN]
NIH Chemical Genomics Center [NCGC]
Assay Provider: Shyam Biswal, Johns Hopkins University
Nrf2 is a transcription factor that maintains cellular redox homoestasis and protects cells from xenobiotics. Nrf2 binds to the antioxidant response element (ARE) to induce gene expression of a broad spectrum of genes that encode for antioxidants. […] Finding a small molecule that act as an inhibitor of Nrf2 function would represent a novel therapeutic target that could lead to improvement in survival of patients undergoing chemo- and/or radio- therapy.
So here we implemented a counterscreen to weed out the cytotoxic compounds.
1. Shibata, T., et al., Genetic Alteration of Keap1 Confers Constitutive Nrf2 Activation and Resistance to Chemotherapy in Gallbladder Cancer. Gastroenterology, 2008.
2. Sjoblom, T., et al., The consensus coding sequences of human breast and colorectal cancers. Science, 2006. 314(5797): p. 268-74.
NCGC Assay Protocol Summary:
A concentration-response assay was performed with A549 ARE_Fluc cells which are suspended in 5% FBS OPTI-MEM. Five uL were dispensed into 1536-well white TC-treated plate using the Kalypsys dispenser to achieve a density of 5000 cells/well in all columns except column 1. The plate is incubated at 37deg C at 5% CO2 for 2 hours before 23 nL of compounds are added with the Kalypsys pin tool equipped with a 1,536-pin array containing 10-nL slotted pins (FP1S10, 0.457-mm diameter, 50.8 mm long; V&P Scientific). The control compounds Budesonide and Staurosporine are both added at a concentration of 2mM and Budesonide is also added as a 1:10 titration, starting at 200uM, to achieve dose-response. After an 18-24 hour incubation at 37deg C at 5% CO2, 5ul of medium is added to column 1. Afterwards 1ul of 5x of CellTiter-Fluor (Promega) is added to every well. The plate is then incubated at 37deg C at 5% CO2 for 30 minutes before they are read on the ViewLux (Perkin Elmer) for a fluorescent read Ex=405(10)/Em=525(10) for a 3 second exposure, 2x binning, and high gain. Then 3 uL of 3x BugLite is dispensed into all wells and the plate is incubated at ambient room temperature for 15 minutes. Afterwards another ViewLux read is performed using the clear filter to get a luminescent read with the settings of 40 second exposure, 2x binning, and high gain. Cytotoxicity is assessed through the first fluorescent read and then biochemical activity against Nrf2 is measured in the luminescent read.
For orientation: In qHTS, concentration-response curves come from the screen itself.
With `Cn1c(=O)[nH]cc(N(CCCl)CCCl)c1=O`, the activity change, negative = cytotoxicity was inactive: -3.59%.
Take `Cc1cc(N(CCCl)CCCl)ccc1C=O`: the activity change, negative = cytotoxicity was inactive: -3.88%.
The figure for `N/C(=N\O)c1c(N)no[n+]1[O-]` is inactive: -2.18%.
As for `O=C(OC1CN2CCC1CC2)c1ccc([N+](=O)[O-])cc1` (stereo unspecified), the activity change, negative = cytotoxicity was inactive: -4.44%.
The figure for `O=P1(N(CCCl)CCCl)SCCCS1` is inactive: 2.41%.
The value for `O=C1C(O)=C([N+](=O)[O-])C(=O)C(O)=C1[N+](=O)[O-]` was inactive: -2.67%.
